Experimental data published in PubChem BioAssay AID504634 (The Scripps Research Institute Molecular Screening Center, 2011).
This is a selection; strong and weak results do not stand in their true shares. Active and inactive are the calls of the source. Cut-off read from the data, not from the text of the source: active = inhibition mostly above about 23% (no sharp cut-off); inactive = mostly below about 18%.

The chains behind the UniProt entries cited, without tags or fusion partners.
UniProt P47898, whole entry, looked up: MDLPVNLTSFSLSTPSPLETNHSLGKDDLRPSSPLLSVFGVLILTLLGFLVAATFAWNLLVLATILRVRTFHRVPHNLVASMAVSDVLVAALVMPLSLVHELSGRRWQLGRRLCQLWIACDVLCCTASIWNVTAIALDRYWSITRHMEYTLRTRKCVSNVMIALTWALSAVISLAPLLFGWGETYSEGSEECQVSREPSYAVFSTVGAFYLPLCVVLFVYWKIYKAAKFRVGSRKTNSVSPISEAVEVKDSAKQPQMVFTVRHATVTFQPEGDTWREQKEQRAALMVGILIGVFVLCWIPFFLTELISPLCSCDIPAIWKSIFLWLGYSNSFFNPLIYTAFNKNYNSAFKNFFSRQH

Each molecule was assayed against 5-hydroxytryptamine receptor 5A (Homo sapiens) (UniProt P47898) (assay: HTR5A inverse agonists in luminescence cell assay, primary screen, counter-screen for OPRM1-OPRD1 heterodimer inverse agonist project, full-deck HTS (AID 504634;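 note: 0% = cells with DMSO and 100% = no-cell wells with DMSO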)). Conditions: HTR5A cell line, inverse agonism, at 9.3 µM, active compounds read high.
`Cc1ccc2c(c1)C1CN(C)CCC1N2C(=S)Nc1ccc(Cl)cc1Cl` (configuration not stated) was tested, and the inhibition was inactive: 20.5%.
In the case of `CSc1nc(N)nc2c1ncn2CC(=O)NCCCN1CCCC1=O`, the inhibition is reported as inactive: -10.8%.
In the case of `Cn1c(=O)c2c(nc(NCc3ccccc3)n2CC(N)=O)n(C)c1=O`, the inhibition is reported as inactive: 13.2%.
With `C=CCSc1nnc(NC(=O)Cn2cnc3c2c(=O)n(C)c(=O)n3C)s1` the inhibition was inactive: 4.35%.
For `O=P1(N(CCCl)CCCl)Nc2ccccc2N1`, the inhibition was inactive: 3.02%.
With `O=P1(N(CCCl)CCCl)OCCCN1CCCl` (configuration not stated) the inhibition was inactive: 6.11%.
With `COc1ccc(CNC(=O)CCNC(=O)N2CCn3c2nc2ccccc23)cc1` the inhibition was inactive: 0.4%.
With `Cc1cc2ncn(C3CC(=O)N(C)C3=O)c2cc1C` (configuration not stated) the inhibition was inactive: -6.7%.
With `CC(O)CNc1nc2ccccc2n1CC(=O)N1CCN(Cc2ccccc2)CC1` (configuration not stated) the inhibition was inactive: 4.27%.
For `CCCCNc1nc2ccccc2n1CC(=O)Nc1c(C)cccc1CC`, the inhibition was inactive: -10.4%.
In the case of `COc1cccc(NC(=O)[C@@H](NC(=O)N2CCn3c2nc2ccccc23)C(C)C)c1`, the inhibition is reported as inactive: 2.29%.
In the case of `COc1cc(I)ccc1[As](=O)(O)O`, the inhibition is reported as inactive: -9.08%.
In the case of `c1ccc(CN2CCC(Nc3nc(-c4ccccc4)nc4ccccc34)CC2)cc1`, the inhibition is reported as inactive: -12.1%.
In the case of `Cc1ccc(/C=N/NC(=O)Cn2cnc3ccccc32)o1`, the inhibition is reported as inactive: -21.9%.
With `Cn1c(=O)[nH]c(=O)c2c1nc(N1CCCCCC1)n2CCN1CCCCCC1` the inhibition was inactive: 10.6%.
In the case of `CC(C)N(C(=O)Cn1c(-c2ccccc2Cl)nc2ccccc21)c1ccccc1`, the inhibition is reported as inactive: -0.82%.
`CCOC(=O)c1cccc(NC(=O)Cn2c(CC(=O)NC)nc3ccccc32)c1` was tested, and the inhibition was inactive: 10.3%.
With `CSCC[C@H](NC(=O)N1CCn2c1nc1ccccc12)C(=O)NCc1ccccc1` the inhibition was inactive: -5.13%.
In the case of `C(=N\c1nc2ccccc2n1CCN1CCCCC1)/c1cccs1`, the inhibition is reported as inactive: -9.5%.
With `Cc1ccc(NC(=O)Cn2cnc3c(OCc4ccccc4)ncnc32)cc1C` the inhibition was inactive: 5.21%.
For `Cn1c(=O)[nH]c(=O)c2c1nc(CN1CCN(c3ccc(F)cc3)CC1)n2CCN1CCOCC1`, the inhibition was inactive: 33.6%.
In the case of `COc1ccc2nc(NP(=O)(c3ccccc3)c3ccccc3)sc2c1`, the inhibition is reported as inactive: 8.62%.
With `CCCn1c(=O)[nH]c(=O)c2c1nc(-c1ccc3c(c1)OCCO3)n2CCN1CCOCC1` the inhibition was inactive: -30.4%.
In the case of `Cc1c2c(nc3ccccc13)SC(C(Cl)Cl)C2` (configuration not stated), the inhibition is reported as inactive: 19.6%.
For `O=C(CCCCCNC(=O)N1CCn2c1nc1ccccc12)N[C@@H](C(=O)O)c1ccccc1`, the inhibition was inactive: 13.9%.
With `Cc1ccc(S(=O)(=O)N2CCCCC2)cc1NC(=O)Cn1cnc2c1c(=O)n(C)c(=O)n2C` the inhibition was inactive: 12.8%.
In the case of `NC(=O)CS(=O)(=O)c1nc2ccccc2n1CC(=O)N1CCCCC1`, the inhibition is reported as inactive: -2.11%.
With `Cc1ccccc1Oc1ccc2c(c1)[C@@H]1C[C@H](N(C)C(=O)c3ccc(C#N)cc3)[C@H]([C@H](C)O)C(=O)N1CC2` the inhibition was inactive: 12.1%.
`NC(=O)CC(NC(=O)Cc1ccc(Br)cc1)c1ccc(NC2CCN(Cc3ccccc3)CC2)c([N+](=O)[O-])c1` (configuration not stated) was tested, and the inhibition was inactive: -6.55%.
With `O=C(Cn1cnc2ccccc21)NC(c1ccccc1)c1ccccc1` the inhibition was inactive: -17.5%.
`CCn1cc(C(=O)N2CCn3c(nc4ccccc43)C2)c(=O)c2ccc(C)nc21` was tested, and the inhibition was inactive: -37.7%.
For `Cn1c(=O)c2c(nc(Cl)n2CC(=O)N2CCCCC2)n(C)c1=O`, the inhibition was inactive: -9.56%.
In the case of `Cc1cc(=O)[nH]c(N[N+](=O)[O-])n1`, the inhibition is reported as inactive: 5.67%.
For `c1ccc2c(c1)ncn2CCN1CCCCC1`, the inhibition was inactive: 9.48%.
With `Cn1c(=O)c2c(ncn2CC(=O)Nc2nccs2)n(C)c1=O` the inhibition was inactive: -3.44%.
In the case of `O=C(Cn1cnc2c(NCc3ccccc3)ncnc21)NCCCN1CCCC1=O`, the inhibition is reported as inactive: 5.6%.
For `O=C(OC1CN2CCC1CC2)C12CC3CC(CC(C3)C1)C2` (configuration not stated), the inhibition was inactive: -10.3%.
With `O=C1C2CCCCC2C(=O)N1c1ccc(NC2CCN(Cc3ccccc3)CC2)c([N+](=O)[O-])c1` (configuration not stated) the inhibition was inactive: 1.22%.
For `CC(C)(C)NC(=O)Cn1c(SCC(=O)NC2CC2)nc2ccccc21`, the inhibition was inactive: -34.7%.
With `CSc1nc(N)nc2c1ncn2CC(=O)NCc1ccc2c(c1)OCO2` the inhibition was inactive: -17.2%.
In the case of `Cc1ccc(Cn2nnnc2CN2CCC(n3nnc4cc(C(F)(F)F)ccc43)CC2)cc1`, the inhibition is reported as inactive: 5.91%.
With `Cc1ccc(-c2csc(NCCn3c(-c4ccncc4)nc4cc(C(F)(F)F)ccc43)n2)cc1` the inhibition was inactive: -10%.
With `Nc1nonc1-c1nc2ccccc2n1CC(=O)NC1CCCC1` the inhibition was inactive: -23.6%.
In the case of `O=C(O)CCc1nn2c3ccccc3n(CCN3CCCCC3)c2nc1=O`, the inhibition is reported as inactive: -19.9%.
`Cc1cnc(NC(=O)Cn2cnc3c2c(=O)n(C)c(=O)n3C)s1` was tested, and the inhibition was inactive: -35.7%.
With `CCN(CC)c1ccc(CNc2nc3ccccc3n2CCN2CCOCC2)cc1` the inhibition was inactive: 2.81%.
In the case of `O=C(Cn1c(NCCO)nc2ccccc21)Nc1cccc(S(=O)(=O)N2CCCC2)c1`, the inhibition is reported as inactive: -25.1%.
With `Cc1ccc(S(=O)(=O)Nc2ccc(Cl)cc2)cc1NC(=O)Cn1cnc2c1c(=O)n(C)c(=O)n2C` the inhibition was inactive: -14%.
With `CC(C)NC(=O)CSc1nc2ccccc2n1CC(=O)N(C(C)C)C(C)C` the inhibition was inactive: -33.9%.
In the case of `Cc1ccc2c(c1)C1CN(C)CCC1N2C(=O)c1ccco1` (configuration not stated), the inhibition is reported as inactive: 11.3%.
With `NC(=O)CC(NC(=O)c1cccc(Br)c1)c1ccc(NC2CCN(Cc3ccccc3)CC2)c([N+](=O)[O-])c1` (configuration not stated) the inhibition was inactive: -2.05%.
With `N=c1n(CCN2CCCCC2)c2ccccc2n1CC(O)c1ccc(Cl)c(Cl)c1` (configuration not stated) the inhibition was inactive: 9.72%.
`COC(=O)[C@H](Cc1ccc(O)cc1)NC(=O)Cn1cnc2c(SC)nc(N)nc21` was tested, and the inhibition was inactive: -22%.
In the case of `CC(C)[Si]1(C(C)C)OCC2OC(n3cnc4c(N)ncnc43)C(N)C2O[Si](C(C)C)(C(C)C)O1` (configuration not stated), the inhibition is reported as inactive: -22.6%.
In the case of `COc1cc(NC(=O)[C@@H](NC(=O)N2CCn3c2nc2ccccc23)C(C)C)cc(OC)c1`, the inhibition is reported as inactive: 0.22%.
For `Nc1nonc1-c1nc2ccccc2n1CC(=O)N1CCN(c2ccc(F)cc2)CC1`, the inhibition was inactive: -22.7%.
`CN(c1ccccc1)S(=O)(=O)c1cccc(NC(=O)Cn2cnc3c2c(=O)n(C)c(=O)n3C)c1` was tested, and the inhibition was inactive: 8.79%.
With `CN(C)CCn1c(=N)n(CC(O)c2ccc(Cl)c(Cl)c2)c2ccccc21` (configuration not stated) the inhibition was inactive: -16.6%.
With `Cc1ccc(CNC(=O)Cn2cnc3c(OCc4ccccc4)ncnc32)o1` the inhibition was inactive: -2.46%.
For `O=[N+]([O-])c1cc(Oc2ccc([N+](=O)[O-])cc2C(F)(F)F)cc([N+](=O)[O-])c1`, the inhibition was inactive: 1.97%.
With `COc1cc(NC(=O)Cn2cnc3c(NCc4ccccc4)ncnc32)cc(OC)c1OC` the inhibition was inactive: -7.11%.
`Cc1cc2ncn(C3CC(=O)N(Cc4ccccc4)C3=O)c2cc1C` (configuration not stated) was tested, and the inhibition was inactive: -2.46%.
`c1ccc2c(c1)nc1n2CCN1CCNC1CCCCC1` was tested, and the inhibition was inactive: 18.8%.
`O=C(Cn1cnc2c(OCc3ccccc3)ncnc21)NCc1ccccn1` was tested, and the inhibition was inactive: 4.42%.
In the case of `Cn1c(=O)c2ncn(CC(=O)Nc3cccc(-c4nc5ccccc5s4)c3)c2n(C)c1=O`, the inhibition is reported as inactive: 7.29%.
For `CCN(CC)S(=O)(=O)c1ccc(OC)c(NC(=O)Cn2cnc3c2c(=O)n(C)c(=O)n3C)c1`, the inhibition was inactive: -1.64%.
With `COc1ccc(N/C(=N/P(=O)(N2CCOCC2)N2CCOCC2)N2CCOCC2)cc1` the inhibition was inactive: -2.01%.
For `CN(C)C(=O)Cn1c(SCC(=O)NCc2ccc3c(c2)OCO3)nc2ccccc21`, the inhibition was inactive: 10.7%.
For `Brc1ccc(CNc2nc3ccccc3n2CCN2CCCCC2)cc1`, the inhibition was inactive: 11%.
For `COc1ccc(/C=N/NC(=O)Cn2c(Cc3ccc(OC)c(OC)c3)nc3ccccc32)cc1`, the inhibition was inactive: 18.4%.
In the case of `CC(Cc1ccc(O)cc1)NCC(O)c1cc(O)cc(O)c1` (configuration not stated), the inhibition is reported as inactive: -1.79%.
In the case of `Cc1ccc(OP(=O)(Nc2ccc([N+](=O)[O-])cn2)Oc2ccc(C)cc2)cc1`, the inhibition is reported as inactive: -9.49%.
For `Fc1ccc2c(c1)nnn2C1CCN(Cc2ccccc2)CC1`, the inhibition was inactive: 5.32%.
In the case of `COC(=O)[C@H](CCSC)NC(=O)Cn1cnc2c(NCc3ccccc3)ncnc21`, the inhibition is reported as inactive: 0.95%.
With `Cn1c(=O)c2c(nc(N3CCOCC3)n2CCNC2=NCCC2)n(C)c1=O` the inhibition was inactive: -0.99%.
In the case of `COc1ccc(S(=O)(=O)N2CCCCC2)cc1NC(=O)Cn1cnc2c1c(=O)n(C)c(=O)n2C`, the inhibition is reported as inactive: -6.9%.
`O=C(Cn1c(C(F)(F)F)nc2ccccc21)N/N=C/c1ccco1` was tested, and the inhibition was inactive: 7.66%.
In the case of `CCOC(=O)Cn1c(=O)c2c(nc3n2CCN3Cc2ccccc2)n(C)c1=O`, the inhibition is reported as inactive: 11.1%.
For `CN(C)CCn1cnc2c1c(=O)n(C)c(=O)n2C`, the inhibition was inactive: 5.75%.
For `CSc1nc(N)nc2c1ncn2CC(=O)N[C@H](C)c1cccc2ccccc12`, the inhibition was inactive: -8.76%.
With `Cc1ccc2nc3c(c(C)c2c1)CC(C(Cl)Cl)S3` (configuration not stated) the inhibition was inactive: 15.5%.
With `COc1ccc(CCNC(=O)[C@H](CCSC)NC(=O)N2CCn3c2nc2ccccc23)cc1OC` the inhibition was inactive: -18.8%.
For `N=c1n(CCCOc2ccc(Br)cc2)c2ccccc2n1CC(N)=O`, the inhibition was inactive: 1.96%.
In the case of `Cc1ccc2c(c1)C1CN(C)CCC1N2S(=O)(=O)c1ccccc1F` (configuration not stated), the inhibition is reported as inactive: 2.91%.
For `CC(C)CN(C(=O)Cn1c(Cl)nc2c1c(=O)n(C)c(=O)n2C)C1CCS(=O)(=O)C1` (configuration not stated), the inhibition was inactive: 2.9%.
In the case of `COc1ccc(NC(=O)Cn2c(NCC(C)O)nc3ccccc32)cc1Cl` (configuration not stated), the inhibition is reported as inactive: 16.1%.
For `O=C(Cn1c2[n+](c3ccc(C(F)(F)F)cc31)CCCCC2)Nc1ccc(Br)cc1`, the inhibition was inactive: 8.29%.
